Experimental data: paper PMC3468530 (PLoS ONE, 2012)

Columns and labels:
SisLac [1] = target: T1, SisLac (Saccharolobus islandicus, UniProt C4KKZ9)
T1 construct: gene M164_0332

SisLac [2] = target: T1, SisLac; remark: listed apart in the source
CCCCC1CCCC(=O)O1 = test: purified protein; conditions: pH 8.3; 25.0 °C
[3] = system: CC(=O)Oc1ccc([N+](=O)[O-])cc1; test: purified protein; conditions: pH 8.0; 25.0 °C
CCCCCCC1CCCC(=O)O1 = test: purified protein; conditions: pH 8.3; 25.0 °C
[4] = system: CCCCCC(=O)CC(=O)NC1CCOC1=O; test: purified protein; conditions: pH 8.3; 25.0 °C
O=C1CCc2ccccc2O1 = test: purified protein; conditions: pH 8.3; 25.0 °C
CCCC1CCC(=O)O1 = test: purified protein; conditions: pH 8.3; 25.0 °C
O=C1CCCCCO1 = test: purified protein; conditions: pH 8.3; 25.0 °C
CCCCCCCC1CCCC(=O)O1 = test: purified protein; conditions: pH 8.3; 25.0 °C
CCCCCCCC1CCC(=O)O1 = test: purified protein; conditions: pH 8.3; 25.0 °C
[5] = system: CCCCCCCCCC(=O)CC(=O)N[C@H]1CCOC1=O; test: purified protein; conditions: pH 8.3; 25.0 °C
CCCCCCCCC1CCC(=O)O1 = test: purified protein; conditions: pH 8.3; 25.0 °C
CCCCCC1CCC(=O)O1 = test: purified protein; conditions: pH 8.3; 25.0 °C
[6] = system: CCCCCCCC(=O)CC(=O)N[C@H]1CCOC1=O; test: purified protein; conditions: pH 8.3; 25.0 °C
O=C1CCCO1 = test: purified protein; conditions: pH 8.3; 25.0 °C
CCCCCCCC(=O)NC1CCOC1=O = test: purified protein; conditions: pH 8.3; 25.0 °C

Compound: CCOC(=O)CC(SP(=S)(OC)OC)C(=O)OCC (racemic) [V, Malathion]
- Km (SisLac [1]): 330 ± 54 µM

Compound: CCOP(=O)(OCC)Oc1ccc([N+](=O)[O-])cc1 [I, Ethyl-Paraoxon]
- Km (SisLac [2]): 5440 ± 873 µM

Compound: COP(=O)(OC)Oc1ccc([N+](=O)[O-])cc1 [II, Methyl-Paraoxon]
- Km (SisLac [2]): 1740 ± 417 µM

Compound: COP(=S)(OC)Oc1ccc([N+](=O)[O-])cc1 [IV, Methyl-Parathion]
- Km (SisLac [2]): 272 ± 17 µM

Compound: SisLac (Saccharolobus islandicus M.16.4)
- Km (CCCCC1CCCC(=O)O1): 62 ± 22 µM
- kcat/Km (CCCCC1CCCC(=O)O1): 828000 M⁻¹ s⁻¹
- Km [3]: 124 ± 36 µM
- kcat/Km [3]: 1600 M⁻¹ s⁻¹
- kcat/Km (CCCCCCC1CCCC(=O)O1): > 1.77e+06 M⁻¹ s⁻¹
- Km [4]: 42 ± 7 µM
- kcat/Km [4]: 97000 M⁻¹ s⁻¹
- Km (O=C1CCc2ccccc2O1): 1122 ± 75 µM
- Km (CCCC1CCC(=O)O1): 128 ± 10 µM
- kcat/Km (CCCC1CCC(=O)O1): 46100 M⁻¹ s⁻¹
- Km (O=C1CCCCCO1): 367 ± 54 µM
- kcat/Km (O=C1CCCCCO1): 19800 M⁻¹ s⁻¹
- Km (CCCCCCCC1CCCC(=O)O1): 124 ± 36 µM
- kcat/Km (CCCCCCCC1CCCC(=O)O1): 89500 M⁻¹ s⁻¹
- Km (CCCCCCCC1CCC(=O)O1): 391 ± 90 µM
- kcat/Km (CCCCCCCC1CCC(=O)O1): 5490 M⁻¹ s⁻¹
- Km [5]: 435 ± 123 µM
- kcat/Km [5]: 897 M⁻¹ s⁻¹
- Km (CCCCCCCCC1CCC(=O)O1): 475 ± 83 µM
- kcat/Km (CCCCCCCCC1CCC(=O)O1): 3140 M⁻¹ s⁻¹
- Km (CCCCCC1CCC(=O)O1): 15 ± 8 µM
- kcat/Km (CCCCCC1CCC(=O)O1): 204000 M⁻¹ s⁻¹
- Km [6]: 111 ± 18 µM
- kcat/Km [6]: 96300 M⁻¹ s⁻¹
- Km (O=C1CCCO1): 158 ± 38 µM
- kcat/Km (O=C1CCCO1): 36400 M⁻¹ s⁻¹
- Km (CCCCCCCC(=O)NC1CCOC1=O): 677 ± 163 µM
- kcat/Km (CCCCCCCC(=O)NC1CCOC1=O): 1050 M⁻¹ s⁻¹

Like-named read-outs stand apart in the source and are kept apart here.
